Read-outs that look alike come from different tables or passages of the source.
What was measured:
cPLA2 = biological target: T1, cPLA2 (Homo sapiens, UniProt P47712); assay: Coumarine assay (hydrolysis of 7-hydroxycoumarinyl 6-heptenoate); assay type: biochemical; settings: Coumarin IC50 (uM), 60 μM 7-hydroxycoumarinyl 6-heptenoate, pH 7.5
T1 sequence (P47712 1-749): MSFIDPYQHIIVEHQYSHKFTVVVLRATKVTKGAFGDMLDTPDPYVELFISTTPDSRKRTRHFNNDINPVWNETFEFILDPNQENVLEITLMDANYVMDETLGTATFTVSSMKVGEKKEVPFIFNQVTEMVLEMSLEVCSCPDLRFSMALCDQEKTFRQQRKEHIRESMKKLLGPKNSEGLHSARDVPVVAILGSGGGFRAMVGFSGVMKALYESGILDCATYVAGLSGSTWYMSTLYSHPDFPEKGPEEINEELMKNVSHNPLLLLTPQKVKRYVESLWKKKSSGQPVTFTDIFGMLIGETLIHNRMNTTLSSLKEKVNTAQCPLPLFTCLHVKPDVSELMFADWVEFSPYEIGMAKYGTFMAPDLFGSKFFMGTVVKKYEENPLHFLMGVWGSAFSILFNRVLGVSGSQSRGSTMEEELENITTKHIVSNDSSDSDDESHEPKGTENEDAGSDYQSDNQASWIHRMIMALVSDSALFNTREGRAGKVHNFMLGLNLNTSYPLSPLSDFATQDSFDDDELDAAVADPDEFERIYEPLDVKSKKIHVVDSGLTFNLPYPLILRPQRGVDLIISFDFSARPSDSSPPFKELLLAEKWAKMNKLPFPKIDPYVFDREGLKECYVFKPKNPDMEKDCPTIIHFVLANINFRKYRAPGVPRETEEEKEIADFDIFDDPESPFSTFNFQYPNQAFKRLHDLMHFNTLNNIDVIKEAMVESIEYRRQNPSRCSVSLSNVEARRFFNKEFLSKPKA

ApoE KO mice = assay: ApoE knockout mouse model of atherosclerosis; assay type: in vivo; settings: after 9 and 20 weeks of treatment, compared to control animals

maximum drug exposure (normal chow diet supplemented at 1.3 mg/g) | maximum drug exposure (normal chow diet supplemented at 3.3 mg/g) | Compound | IC50 (cPLA2) | serum thromboxane B2 levels (ApoE KO mice)
 |  | O=C(O)c1ccc(OCCc2c(CCNS(=O)(=O)/C=C/c3ccccc3)n(C(c3ccccc3)c3ccccc3)c3ccc(Cl)cc23)cc1 [Example 21, 4-(2-{1-benzhydryl-5-chloro-2-[2-({[(E)-2-phenylethenyl]sulfonyl}amino)ethyl]1H-indol-3-yl}ethoxy)benzoic acid] | 1.1 µM | 
~250 ng/mL | ~500 ng/mL | O=C(O)c1ccc(CCCc2c(CCNS(=O)(=O)Cc3ccc(Cl)c(Cl)c3)n(C(c3ccccc3)c3ccccc3)c3ccc(Cl)cc23)cc1 [Example 44] |  | significantly decreased

Reference: US7605156B2 (dated 2009)
